# Source: PubChem (ICCB-Longwood Screening Facility, Harvard Medical School)
# GIV Gai3 FP = GIV-Galpha-i interaction inhibition; P08753; Galpha-i3/FITC-GIV peptide fluorescence polarization, 90 min; active compounds read low; scaled: aluminum fluoride 0%, vehicle 100%; percent of control (FP), % (no concentration beside the values); 210,000 compounds, 0.42% hits; AID 1224905;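 active means replicate mean at 85% of control or lower, very high polarization wells dropped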;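 further: wells of about 15 µL received 100 nL stock; the first replicate is given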
# HCMV NEC inh = disrupts HCMV UL50-UL53 complex binding; HTRF UL50-UL53 interaction, normalized percent inhibition; inhibition, % (concentration not given with the values); hit rate 0.15% among 190,000; AID 1918969; in the data active = inhibition above about 27%, passing the limit was not always enough
# The depositor's hits bear a star; . = no result. Shown are actives, neighbours in structure and some others; about 0.43% of the full set was active somewhere.
SMILES,GIV Gai3 FP,HCMV NEC inh
CC(CC1C(C#N)=C(N)SC(N)=C1C#N)c1ccccc1 (stereo not given),-73.7*,-7.7
Cc1ccccc1C1N2CC3(C)CN1CC(C)(C2)C3=O (stereo not given),110.8,.
O=C1/C(=C/c2ccc(O)cc2)SC(=S)N1CC1CCCO1 (stereo not given),-24.0*,.
O=C1/C(=C/C2CC=CCC2)SC(=S)N1CC1CCCO1 (stereo not given),100.1,.
N#CC(C#N)=C(/C=C/c1ccccc1)C1CC1,.,-2.8
CN(C)c1ccc(/C=C/C(=C(C#N)C#N)C2CC2)cc1,-45.0*,-39.2
COC(=O)CSCc1nc2ccccc2[nH]c1=O,211.8,56.8*
O=C(O)CSCc1nc2ccccc2[nH]c1=O,145.4,52.5*
O=C(O)CSCc1nc2ccccc2[nH]1,.,-3.7
COC(=O)CSc1nc2ccccc2[nH]1,99.8,-43.4
CCCC(=O)Nc1cccc(N2CCn3c(nc4cc(Cl)ccc43)C2)c1,96.2,0.1
CCOC(=O)C1CCCN(C(=O)c2ccccc2NC(=O)c2nsc3ccccc23)C1 (stereo not given),107.5,.
O=S(=O)(NCCc1n[nH]c(Cc2ccccc2)n1)c1cccc(F)c1,109.0,.
COc1ccc(Nc2nn3c(=O)c4ccccc4nc3s2)cc1,.,-9.1
CC(C)c1ccc(Nc2nn3c(=O)c4ccccc4nc3s2)cc1,97.6,37.5*

# Sorted by the number under GIV Gai3 FP (largest number first): 6 of the compounds above
canonical_smiles	GIV Gai3 FP
COC(=O)CSCc1nc2ccccc2[nH]c1=O	211.8
CCOC(=O)C1CCCN(C(=O)c2ccccc2NC(=O)c2nsc3ccccc23)C1 (stereo not given)	107.5
O=C1/C(=C/C2CC=CCC2)SC(=S)N1CC1CCCO1 (stereo not given)	100.1
CC(C)c1ccc(Nc2nn3c(=O)c4ccccc4nc3s2)cc1	97.6
O=C1/C(=C/c2ccc(O)cc2)SC(=S)N1CC1CCCO1 (stereo not given)	-24.0*
CN(C)c1ccc(/C=C/C(=C(C#N)C#N)C2CC2)cc1	-45.0*

# Next section
SMILES,GIV Gai3 FP,HCMV NEC inh
Clc1ccc(SCc2cn3ccsc3n2)cc1,103.0,-25.3
N#Cc1cnc2c(-c3ccccc3)c(COc3ccccc3)nn2c1N,104.9,.
CCCS(=O)(=O)N1N=C(c2ccc(C)cc2)CC1c1ccco1 (stereo not given),7.4*,-10.3
CCCS(=O)(=O)N1N=C(c2ccc(Cl)cc2)CC1c1ccco1 (stereo not given),182.3,-5.9
COc1ccc(-c2nnc(-c3cccnc3N3CCC4(CC3)OCCO4)o2)cc1,107.7,.
COc1cc(C=C2C(=O)NC(=O)NC2=O)cc(Cl)c1OS(=O)(=O)c1ccccc1,103.9,60.3*
COc1cc(C=C2C(=O)N(C)C(=O)N(C)C2=O)cc(Br)c1OCCOc1ccccc1,106.4,-6.6
COc1ccccc1OCCOc1c(Br)cc(C=C2C(=O)N(C)C(=O)N(C)C2=O)cc1OC,106.0,77.3*
COc1cc(C=C2C(=O)NC(=S)NC2=O)cc(Cl)c1OCCOc1cccc(C)c1,111.2,6.6
CCOc1cc(C=C2C(=O)NC(=O)NC2=O)cc(Br)c1OCCOc1ccccc1,108.1,-14.9
COc1cc(C=C2C(=O)NC(=O)NC2=O)cc(Br)c1OCCOc1ccccc1,105.0,82.2*
CCCNC(=O)Cn1nc(-c2ccc(Cl)cc2)c2c(C)onc2c1=O,101.2,-19.5
CCn1c(Cc2ccccc2)nnc1SCC(=O)N(C)C1CCCCC1,97.2,-18.6
CC(COc1ccc2c(c1)OCO2)NC(=O)c1c(F)cccc1F (stereo not given),102.2,-23.3
Clc1ccc(C2=CC(c3ccc(Br)cc3)n3ncnc3N2)s1 (stereo not given),-22.3*,.
Cc1ccsc1C1C=C(c2ccc(Br)cc2)Nc2ncnn21 (stereo not given),96.8,.
COc1ccccc1C(=O)N/C(=C\c1cn(S(=O)(=O)N(C)C)c2ccccc12)C(=O)NCCCn1ccnc1,108.7,-13.8
OCC[n+]1ccc(/C=C/c2c[nH]c3ccccc23)cc1,-18.2*,.
Cc1ccccc1/C=C/c1c[nH]c2ccccc12,101.3,-15.0
Cc1ccc2[nH]c3c(c2c1)CCC1C3=NNC1c1ccco1 (stereo not given),-65.7*,.
Cc1ccc2[nH]c3c(c2c1)CCc1cn[nH]c1-3,98.9,-16.5
COc1ccc2nc(Cl)sc2c1,.,-2.5
O=c1[nH]c(=O)n(-c2ccccc2)c(O)c1C=Nc1ccc(S(=O)(=O)N2CCCCC2)cc1,106.3,-8.4
O=S(=O)(c1ccc(N=Cc2c(O)ccc3ccccc23)cc1)N1CCCCC1,.,76.1*
NS(=O)(=O)c1ccc(N=Cc2c(O)ccc3ccccc23)cc1,.,96.6*
O=S(=O)(/N=C/c1c(O)ccc2ccccc12)c1ccccc1,98.5,.
CCOC(=O)c1ccc(N=C2SC(C(=O)Nc3ccc(OC)cc3)CC(=O)N2C)cc1 (stereo not given),104.3,-20.5
CCc1c(C)nc2nc(-c3ccccc3)nn2c1NCc1ccc2c(c1)OCO2,105.2,-16.2
CCCN1CC=C2C(C#N)=C(N)C(C#N)(C#N)C(c3ccc(F)cc3F)C2C1 (stereo not given),44.1*,-39.6
CC(=O)N1CC=C2C(C#N)=C(N)C(C#N)(C#N)[C@H](c3ccc(F)cc3F)[C@H]2C1,.,-35.5
COc1cc(C2N(Cc3ccccc3)CCCN2Cc2ccccc2)c([N+](=O)[O-])cc1OC,102.4,.
Cc1cc(C(=O)Oc2ccc3c(c2)OCO3)c(C)s1,.,-11.0
CCSc1nnc2c(n1)OC1(Nc3ccccc3-2)C(=O)Nc2ccc(Br)cc21 (stereo not given),.,6.2
CSc1nnc2c(n1)OC1(Nc3ccccc3-2)C(=O)Nc2ccc(Cl)cc21 (stereo not given),100.0,50.4*
N#Cc1c(N2CCCC(C(=O)O)C2)nc(N)c2c(N)nc3c(c12)CC(=O)N3C1CCCC1 (stereo not given),.,-17.6
CN(CCO)c1nc(N)c2c(N)nc3c(c2c1C#N)CC(=O)N3C1CCCC1,.,100.8*
CN(C)c1ccc(/C=C2/N=C(c3cccs3)OC2=O)cc1,.,-11.5
CN(C)c1ccc(/C=C2\N=C(c3ccc(Br)o3)OC2=O)cc1,-56.4*,-25.6
O=C(CSCc1ccco1)c1ccco1,.,-11.5
O/N=C1\CCCc2c1nc(-c1ccccc1Cl)n2O,.,-3.1
O/N=C1/CCCc2nn(-c3ccccc3)nc21,.,55.7*
C=CC(=O)Nc1cccc(Oc2nc(Nc3ccc(N4CCN(C)CC4)cc3OC)ncc2Cl)c1,.,48.7
C=CC(=O)Nc1cccc(Oc2cc(Cl)nc3[nH]ccc23)c1,.,33.8*
Cc1nnc(-c2c(S(=O)(=O)NC3CCN(Cc4ccccc4)CC3)c(C)n(C)c2C)o1,105.0,.
CC1CN(C(=O)CSc2ncc(C(F)(F)F)cc2Cl)CC(C)O1 (stereo not given),.,-9.4

# Single records (already shown). Screens in order: GIV Gai3 FP | HCMV NEC inh
# O/N=C1/CCCc2nn(-c3ccccc3)nc21 in the list: . | 55.7*
# Cc1nnc(-c2c(S(=O)(=O)NC3CCN(Cc4ccccc4)CC3)c(C)n(C)c2C)o1 in the list: 105.0 | .

# The list goes on:
SMILES,GIV Gai3 FP,HCMV NEC inh
O=C(O)c1ccc2ncsc2c1,.,71.2*
O=C(c1ccc2ncsc2c1)N1CCCCC1,.,13.0
CCOC(=O)c1cc2c(cc1C(=O)OCC)[n+](CC)c(/C=C/C=C1N(CC)c3cc(Cl)c(Cl)cc3N1CC)n2CC,121.5,.
CC(=O)OCCCN1/C(=C\C=C\c2n(CCCOC(C)=O)c3cc(Cl)c(Cl)cc3[n+]2C)N(C)c2cc(Cl)c(Cl)cc21,59.7*,.
CCOC(=O)c1ccccc1NC(=O)CSc1ncc(S(=O)(=O)c2ccc(Br)cc2)c(=O)[nH]1,107.3,-31.9
CCN=C1S/C(=C\c2ccc(C(=O)OC)cc2)C(=O)N1CC,100.3,-57.8
CCN1C(=O)/C(=C\C=C2/N(CC)c3ccc(C(=O)OC)cc3N2CC)SC1=S,-73.7*,-44.5
N#CC1=C(N)SC(N)=C(C#N)C1c1cccs1,-53.9*,-48.2
CC(C)c1ccc(C2C(C#N)=C(N)SC(N)=C2C#N)cc1,.,-24.6
CCOC(=O)C1=C(C)OC(N)=C(C#N)C1c1cccc(C(F)(F)F)c1 (stereo not given),100.0,.
N#CC1=C(N)SC(N)=C(C#N)C1c1ccc(O)cc1,-73.7*,-40.8
CC(=O)C1=C(C)OC(N)=C(C#N)C1c1cccs1 (stereo not given),100.4,.
N#CC1=C(N)SC(N)=C(C#N)C1c1cccc(C(F)(F)F)c1,-82.9*,-49.8
